The species named for assay [1] is Homo sapiens. The assay can be described thus: Selectivity index, ratio of IC50 for recombinant full length human Dyrk1B to IC50 for recombinant full length human Dyrk1A.
For assay [2], the species on record is Homo sapiens. The assay can be described thus: Selectivity index, ratio of IC50 for recombinant human Haspin expressed in Baculovirus expression system to IC50 for recombinant full length human Dyrk1A expressed in Baculovirus expression system.

Molecules are shown by their SMILES.

Turning to `O=C(Cc1ccc(F)cc1)Nc1cncc(-c2cc(-c3cccnc3)cs2)c1`, the Ratio IC50 is 27 in the assay listed under Homo sapiens [1] and 2.5 in the assay filed under Homo sapiens [2].

These data come from ChEMBL document CHEMBL4261587 (Eur J Med Chem, 2018).
